Values quoted from earlier work as cited in US12023174B2, “Detecting cyanide exposure based on thiocyanate measurement in saliva” (dated 2024).
Read-outs that look alike come from different tables or passages of the source.

Key:
[1] = in vivo

Compound: [C-]#[O+]
- mean blood carbon monoxide concentration (all 109 fire victims): 1.5±1.7 mmol per liter
- mean blood carbon monoxide concentration (fire victims who died): 2.8±2.0 mmol per liter
- mean blood carbon monoxide concentration (fire victims who survived): 0.7±0.7 mmol per liter

Compound: thiocyanate
- half-life [1]: 140 to 336 h
